Each structure is given as a SMILES string.

Sequences of proteins named here, by UniProt entry; tags and fusion partners are left off. Residues count along the entry.
UniProt P12821, 30-1306, species assumed: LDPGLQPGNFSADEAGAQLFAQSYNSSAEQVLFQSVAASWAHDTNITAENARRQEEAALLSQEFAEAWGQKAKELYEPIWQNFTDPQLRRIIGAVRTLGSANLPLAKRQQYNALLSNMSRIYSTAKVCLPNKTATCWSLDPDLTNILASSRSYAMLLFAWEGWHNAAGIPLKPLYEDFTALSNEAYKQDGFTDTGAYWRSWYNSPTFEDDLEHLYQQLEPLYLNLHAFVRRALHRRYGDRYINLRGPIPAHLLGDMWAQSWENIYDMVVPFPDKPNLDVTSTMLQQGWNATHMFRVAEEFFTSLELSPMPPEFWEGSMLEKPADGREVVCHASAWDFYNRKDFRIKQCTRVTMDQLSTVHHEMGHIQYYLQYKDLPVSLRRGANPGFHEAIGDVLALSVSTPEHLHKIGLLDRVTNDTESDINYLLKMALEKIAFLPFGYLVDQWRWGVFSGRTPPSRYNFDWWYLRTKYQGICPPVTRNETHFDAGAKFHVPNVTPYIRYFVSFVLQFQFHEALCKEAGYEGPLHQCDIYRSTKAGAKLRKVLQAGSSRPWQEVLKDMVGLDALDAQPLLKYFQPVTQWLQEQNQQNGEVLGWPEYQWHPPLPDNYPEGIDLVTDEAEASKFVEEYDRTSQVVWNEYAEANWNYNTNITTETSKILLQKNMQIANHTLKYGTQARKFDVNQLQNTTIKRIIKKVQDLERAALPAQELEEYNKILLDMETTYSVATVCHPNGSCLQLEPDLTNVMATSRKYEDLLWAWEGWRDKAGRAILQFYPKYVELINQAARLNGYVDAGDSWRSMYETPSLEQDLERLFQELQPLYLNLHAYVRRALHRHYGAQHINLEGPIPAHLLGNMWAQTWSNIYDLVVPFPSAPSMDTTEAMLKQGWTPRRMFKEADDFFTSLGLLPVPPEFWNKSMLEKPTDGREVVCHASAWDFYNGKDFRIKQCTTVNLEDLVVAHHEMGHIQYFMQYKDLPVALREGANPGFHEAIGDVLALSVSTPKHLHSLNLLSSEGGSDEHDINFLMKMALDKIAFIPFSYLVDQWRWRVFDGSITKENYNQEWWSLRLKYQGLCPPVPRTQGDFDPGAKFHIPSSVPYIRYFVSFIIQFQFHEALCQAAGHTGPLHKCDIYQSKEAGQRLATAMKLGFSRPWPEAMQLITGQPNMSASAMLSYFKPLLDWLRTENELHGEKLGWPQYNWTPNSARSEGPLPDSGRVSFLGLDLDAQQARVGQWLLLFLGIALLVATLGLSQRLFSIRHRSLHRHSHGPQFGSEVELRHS

Here are results for one compound from article PMC6271714, “Hypotensive Effects and Angiotensin-Converting Enzyme Inhibitory Peptides of Reishi (Ganoderma lingzhi) Auto-Digested Extract” (Molecules, 2014).

This experiment concerns the target T1, Angiotensin-Converting Enzyme (ACE) (Homo sapiens, UniProt P12821).
T1 construct: purchased Dojindo Laboratories ACE Kit-WST A502
Put plainly: ACE inhibition assay (Dojindo ACE Kit-WST A502). Type of experiment: biochemical. The note with it: synthesized peptides, six concentrations 10 to 100 μg/mL; read-out: IC50 Values (μM), ACE inhibition capacity. As to the method: Dojindo ACE Kit-WST A502 was used for testing the ACE-inhibitory activity. Principles of the kit were described in details in a previous report. Testing procedures were run strictly according to the manufacturer’s instructions using a 96-well plate, and inhibition rate was calculated based on the comparison of optical absorbance of sample-treated wells (As), control wells (Ac) and blank wells (Ab) as in the equation below. Absorbance was measured at 450 nm using microplate reader-Biotek-ELX800 (BioTek, Winooski, VT, USA): Inhibition rate (%) = [(Ac − As)/(Ac − Ab)]×100 (1)
For the peptides, six different concentrations of each peptide, ranging from 10 to 100 μg/mL, were assayed, and dose-response curves were plotted for the calculation of the IC50 values. IPP has been proven to be an ACE inhibitor [34] and thus was used as positive control (at concentrations ranging from 0.15 to 5 μg/mL).

Turning to `CC[C@H](C)[C@H](N)C(=O)N1CCC[C@H]1C(=O)N1CCC[C@H]1C(=O)O` [Ile-Pro-Pro, Isoleucine-Proline-Proline, reference compound], the IC50 was less than 0.5 µM.

As usually defined, the IC50 is the concentration that inhibits the measured activity by half.
